Here are results for 4 compounds from PubChem BioAssay AID1199 (EPA DSSTox, 2008).

The subject of the series is mouse carcinogenicity bioassay, TD50 from CPDB. Nature of the series: DSSTox (CPDBAS) Carcinogenic Potency Database Summary Mouse Bioassay Results. The settings on record: TargetSites_Mouse_Female: no positive results; for outcome: TD50_Mouse_Note: no positive results. An excerpt:
The Carcinogenic Potency Database (CPDB) is a unique and widely used international resource of the results of over 6500 chronic, long-term animal cancer tests on over 1500 chemical substances. The CPDB provides easy access to the bioassay literature, with qualitative and quantitative analyses of both positive and negative experiments that have been published over the past 50 years in the general literature and by the National Cancer Institute/National Toxicology Program. The CPDB standardizes the diverse literature of cancer bioassays that vary widely in protocol, histopathological examination and nomenclature, and in the published author's choices of what information to provide in their papers. Results are reported in the CPDB for tests in rats, mice, hamsters, dogs, and nonhuman primates, and are based on the most positive result among all experiments for each sex-species. The DSSTox CPDBAS (all species) file incorporates data from the CPDB Summary Tables for the full list of over 1500 chemical substances tested in at least one species. Summary bioassay results for Mouse (TD50, tumor sites, male, female, both sexes) are provided in the CPDB Summary Tables and the DSSTox CPDBAS file for over 1000 chemical substances.
TD50 is a standardized quantitative measure of carcinogenic potency (analogous to an LD50) and is reported in the CPDB Summary Table for each species. Activity Score for actives is computed by mapping of LOG10 (1/TD50_Mouse_mmol) activity values spanning range [MIN, MAX] onto Integer 1-100 Activity Score range, where 100 is highest potency and 1 is lowest: Activity Score = 100 * INTEGER[(log10(1/Activity) - MIN)/(MAX […] MIN)]. If activity is reported but no TD50_Mouse_mmol value is computed, such as for a mixture, the Activity Score is assigned the activity value "50". […] Target sites are reported for each sex-species group with a positive result in the CPDB on the basis of a positive author's opinion for the particular site, using all results from both the general literature and NCI/NTP bioassays. If a chemical has two or more target sites listed, the results may be from different experiments, and a single site may be a target organ in more than one experiment, as well. Blank entry in TargetSites field indicates no results reported.

The source made the active and inactive calls.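 Rule for the calls: active = a tumour-causing dose and a tumour site recorded for mice in at least one sex group; inconclusive = only government mouse studies exist and were judged inadequate; inactive = mouse studies exist but none gave tumours.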

For `Cc1ccc([N+](=O)[O-])cc1[N+](=O)[O-]`, the outcome was “inactive; no positive results” and the Potency was 0.161 mmol/kg/day.

With `ClCl`, the outcome was “inactive; no positive results”.

Turning to `O=[N+]([O-])OCC(CO[N+](=O)[O-])(CO[N+](=O)[O-])CO[N+](=O)[O-]`, the outcome is “inactive; no positive results”.

For the compound `COP(C)(=O)OC`, the outcome is “inactive; ntp bioassay inadequate”.
